Laboratory results reported in PubChem BioAssay (NCATS).
The list shows a part of the results, in another mix than the full data. Inconclusive results are not listed. Calls of active or inactive are those of the source. Calls come from the whole dose curve; as a rule, active = well fitted curve in the direction sought with a large enough effect; inconclusive = small, poorly fitted or top-dose-only effect, or another doubt; inactive = no such curve, though single readings can be large; an effect the other way counts as inactive or inconclusive.

By UniProt entry, the sequences of proteins in these tests, tags left out.
UniProt P08684, whole entry, looked up: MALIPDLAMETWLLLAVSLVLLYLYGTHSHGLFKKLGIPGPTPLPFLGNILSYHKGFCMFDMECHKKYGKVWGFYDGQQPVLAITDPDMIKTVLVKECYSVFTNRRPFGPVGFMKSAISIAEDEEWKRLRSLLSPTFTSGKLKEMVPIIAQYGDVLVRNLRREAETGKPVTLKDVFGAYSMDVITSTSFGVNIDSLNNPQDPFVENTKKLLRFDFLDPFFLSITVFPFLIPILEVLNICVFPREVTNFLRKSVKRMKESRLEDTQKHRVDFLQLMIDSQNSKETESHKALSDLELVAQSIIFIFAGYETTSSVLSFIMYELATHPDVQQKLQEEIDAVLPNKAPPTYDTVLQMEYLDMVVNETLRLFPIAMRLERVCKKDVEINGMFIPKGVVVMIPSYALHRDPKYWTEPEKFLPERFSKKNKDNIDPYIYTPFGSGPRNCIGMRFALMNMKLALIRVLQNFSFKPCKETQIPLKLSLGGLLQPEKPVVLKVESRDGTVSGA

Legend:
[1] = biological target: Cytochrome P450 3A4 (Homo sapiens) (UniProt P08684); test: qHTS Assay for Inhibitors and Substrates of Cytochrome P450 3A4 (AID 884); settings: recombinant CYP3A4, Luciferin-PPXE luminescence; at 57.1 µM (top of the series); note: % is set by controls: 0 for no effect and ±100 for the full control effect; nearly all actives have a fitted effect of over 50% in size
[2] = MultiTox-Fluor Cytotoxicity Assay - LYMP1-001 - Dead Cells (AID 946); settings: LYMP1-001 lymphoblastoid cells, dead-cell protease fluorescence; at 92.2 µM (top of the series);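 note: cells exposed to compound for 16 h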
Outline: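 Seed 2500 LYMP1-001 cells/well, incubate 5 hr at 37 C; add compound, 16 hr at 37 C; add MultiTox-Fluor reagent, 60 min RT; read dead-cell fluorescence Ex/Em=485/520. Normalize to DMSO and 15 uM tetraoctylammonium bromide.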

[3] = MultiTox-Fluor Cytotoxicity Assay - LYMP1-001 - Live Cells (AID 947); settings: LYMP1-001 lymphoblastoid cells, live-cell protease fluorescence viability; at 92.2 µM (top of the series);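 note: 0% = DMSO only and full inhibition = tetraoctylammonium bromide control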
[4] = Cell Viability - LYMP1-002 - Assay at 16 hr (AID 948); settings: LYMP1-002 lymphoblastoid cell viability; at 92.2 µM (top of the series);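 note: 0% = DMSO alone and full effect = 92 µM tetraoctylammonium bromide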
Outline: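 Seed 2500 LYMP1-002 cells per well in complete medium and hold 5 hr at 37 C. Add compound across a concentration series and incubate 16 hr at 37 C. Add CellTiter-Glo, wait 30 min at room temperature, read luminescence.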

[5] = MultiTox-Fluor Cytotoxicity Assay - LYMP1-002 - Live Cells (AID 955); settings: LYMP1-002 lymphoblastoid live-cell protease fluorescence viability; at 46.1 µM (top of the series);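 note: cells exposed to compound for 16 hours; % is set by controls: 0 for no effect and ±100 for the full control effect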
Outline: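 Human lymphoblastoid LYMP1-002 cells, 2500/well, treated 16 h at 37 C in complete medium. Live-cell protease activity via GF-AFC fluorescence (Ex/Em 405/510) after 60 min reagent incubation; AC50 from Hill fits.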

[6] = MultiTox-Fluor Cytotoxicity Assay - LYMP1-002 - Dead Cells (AID 960); settings: LYMP1-002 lymphoblastoid cells, dead-cell protease fluorescence; at 46.1 µM (top of the series);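 note: cells exposed to compound for 16 h at 37 °C; nearly all actives have a fitted effect of over 60% in size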
Outline: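 Human lymphoblastoid LYMP1-002 cells, 2500/well, treated 16 h at 37 C; dead-cell protease cleavage of bis-AAF-R110 read by fluorescence (485/520); normalized to DMSO and 15 uM tetraoctylammonium bromide; AC50 from Hill fit.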

[7] = MultiTox-Fluor Cytotoxicity Assay - LYMP1-003 - Dead Cells (AID 961); settings: LYMP1-003 lymphoblastoid cells, dead-cell protease fluorescence; at 92.2 µM (top of the series);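 note: cells exposed to compound for 16 h at 37 °C; nearly all actives have a fitted effect of over 70% in size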
Outline: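 LYMP1-003 lymphoblastoid, 2500 cells/well, 5 hr settle then 16 hr cpd at 37 C; MultiTox-Fluor reagent 60 min RT; Ex/Em 485/520 dead-cell signal; norm. DMSO = 0%, 15 uM tetraoctylammonium bromide = 100%; Hill AC50.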

[8] = MultiTox-Fluor Cytotoxicity Assay - LYMP1-003 - Live Cells (AID 962); settings: LYMP1-003 lymphoblastoid cells, MultiTox-Fluor live-cell protease fluorescence; at 92.2 µM (top of the series);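 note: cells exposed to compound for 16 hours at 37 °C; 0% = DMSO only and full loss = 92 µM tetraoctylammonium bromide; cytotoxic hits lower the live-cell protease signal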
Outline: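 LYMP1-003 lymphoblastoid cells, 2500/well in complete medium, treated 16 h at 37 C; live-cell protease cleavage of GF-AFC read by fluorescence (Ex/Em 405/510) after 60 min reagent; AC50 from Hill fits of concentration-response.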

[9] = Cell Viability - LYMP1-003 - Assay at 24 hr (AID 963); settings: LYMP1-003 lymphoblastoid cell viability; at 92.2 µM (top of the series);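 note: plate controls were DMSO only for no effect and tetraoctylammonium bromide positive control for full effect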
Outline: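 Human lymphoblastoid LYMP1-003 cells, 2500/well, treated 24 h at 37 C in complete medium. Viability read as intracellular ATP by CellTiter-Glo luminescence after 30 min at room temperature; AC50 from Hill-equation fits of qHTS concentration-response.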

[10] = Cell Viability - LYMP2-005 (AID 967);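 note: plate controls were DMSO only for no effect and 92 µM tetraoctylammonium bromide control for full effect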
Outline: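 Acute cytotoxicity is scored as a concentration-dependent drop in intracellular ATP in human lymphoblastoid LYMP2-005 cells after 24 h compound treatment. ATP is quantified by luciferase luminescence, and AC50 is derived by Hill-equation modelling.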

[11] = Cell Viability - LYMP2-023 (AID 975); settings: LYMP2-023 lymphoblastoid cell viability; at 92.2 µM (top of the series);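 note: cellular ATP measured by luciferase luminescence as viability proxy; plate controls were DMSO only for no effect and 92 µM tetraoctylammonium bromide control for full effect; nearly all actives have a fitted effect of over 55% in size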
Outline: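 LYMP2-023 human lymphoblastoid cells, 2500/well, preincubated 5 hr at 37 C, then compound-treated 24 hr at 37 C in complete medium. CellTiter-Glo luminescence (ATP) after 30 min at room temperature; AC50 from Hill-equation fits; tetraoctylammonium bromide positive control.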

[12] = Cell Viability - LYMP2-025 (AID 976); settings: LYMP2-025 lymphoblastoid cell viability; at 92.2 µM (top of the series);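 note: plate controls were DMSO only for no effect and tetraoctylammonium bromide control for full effect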
Outline: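 Human lymphoblastoid LYMP2-025 cells, 2500/well, exposed 24 h at 37 C in complete medium in 1536-well qHTS. Viability as cellular ATP by CellTiter-Glo luminescence; AC50 from Hill fits of concentration-response data.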

[13] = Cell Viability - LYMP2-002 (AID 977); settings: LYMP2-002 lymphoblastoid cell viability, qHTS; at 92.2 µM (top of the series);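 note: compound exposure lasted 24 h at 37 °C; plate controls were DMSO only for no effect and 92 µM tetraoctylammonium bromide for full effect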
Outline: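 Cytotoxicity is scored as concentration-dependent loss of cellular ATP in a human lymphoblastoid line after 24 hr compound treatment at 37 C. AC50 is obtained by modelling concentration-response data with the Hill equation.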

[14] = Cell Viability - LYMP2-007 (AID 979); settings: LYMP2-007 lymphoblastoid cell viability; at 92.2 µM (top of the series);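 note: cells exposed to compound for 24 h before reading; 0% = DMSO only and the negative end = 92 µM tetraoctylammonium bromide; nearly all actives have a fitted effect of over 60% in size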
[15] = Cell Viability - LYMP2-014 (AID 983); settings: LYMP2-014 lymphoblastoid cells, viability qHTS; at 92.2 µM (top of the series);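 note: plate controls were DMSO only for no effect and 92 µM tetraoctylammonium bromide for full effect; nearly all actives have a fitted effect of over 50% in size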
Outline: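 LYMP2-014 human lymphoblastoid cells, 2500/well, treated 24 h at 37 C in complete medium; viability by CellTiter-Glo ATP luminescence after 30 min at room temperature. AC50 from Hill fits of qHTS concentration-response; tetraoctylammonium bromide positive control.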

[16] = Cell Viability - LYMP2-016 (AID 984); settings: LYMP2-016 lymphoblastoid cell viability, qHTS; at 92.2 µM (top of the series); note: % is set by controls: 0 for no effect and ±100 for the full control effect; nearly all actives have a fitted effect of over 55% in size
Outline: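 Cells were seeded at 2500 per well and rested 5 hr before a 24 hr compound exposure at 37 C. Viability was then gauged as cellular ATP by luciferase luminescence, with AC50 values fitted to the Hill equation.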

[17] = Cell Viability - LYMP2-026 (AID 989); settings: LYMP2-026 lymphoblastoid cell viability, qHTS; at 92.2 µM (top of the series); note: % is set by controls: 0 for no effect and ±100 for the full control effect; nearly all actives have a fitted effect of over 50% in size
Outline: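 Human lymphoblastoid LYMP2-026 cells, 2500/well, exposed to compound 24 h at 37 C in complete medium. Viability as intracellular ATP by CellTiter-Glo luminescence; AC50 from Hill fits of qHTS concentration-response.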

[18] = Cell Viability - LYMP1-002 - Assay at 24 hr (AID 993); settings: LYMP1-002 lymphoblastoid cells viability; at 92.2 µM (top of the series); note: % is set by controls: 0 for no effect and ±100 for the full control effect
Outline: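 Human lymphoblastoid LYMP1-002 cells (2500/well) treated 24 h at 37 °C; viability as intracellular ATP by CellTiter-Glo luminescence. Tetraoctylammonium bromide as positive control; AC50 from Hill-equation fits of qHTS concentration-response.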

Cc1cc([N+](=O)[O-])cc([N+](=O)[O-])c1O
inactive: activity change, negative = inhibition [1] -6.09% | cytotoxicity (dead cells) [2] -1.32% | activity change, negative = cytotoxicity [3] -28.7% | activity change, negative = cytotoxicity [4] -8.2% | viability change, negative = cytotoxic [5] -18.3% | cytotoxicity (dead cells) [6] 20.7% | cytotoxicity (dead cells) [7] 12.6% | activity change, negative = fewer live cells [8] -18.9% | viability change, negative = cytotoxic [9] -13.2% | Potency [10] | activity change, negative = cytotoxicity [11] -1.1% | activity change, negative = cytotoxicity [12] -16.5% | activity change, negative = cytotoxic [13] 3.82% | activity change, negative = cytotoxicity [14] -11.4% | activity change, negative = cytotoxicity [15] -0.972% | activity change, negative = cytotoxicity [16] -15.3% | activity change, negative = cytotoxic [17] -10.9% | activity change, negative = cytotoxicity [18] -10.5%
